# Measured affinities in a library of Ab-14 heavy chain variants

The target is the same throughout: PDVDLGDISGINAS, from the HR2 region of SARS-CoV-2 spike.

Parent: Ab-14, a human scFv built as VH, a (GGGGS)3 linker, VL. Only the CDRs of the heavy chain vary.
VH: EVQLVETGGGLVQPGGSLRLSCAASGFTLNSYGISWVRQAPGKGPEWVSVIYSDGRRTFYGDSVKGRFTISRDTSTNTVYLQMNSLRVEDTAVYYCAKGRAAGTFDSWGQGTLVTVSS
VL: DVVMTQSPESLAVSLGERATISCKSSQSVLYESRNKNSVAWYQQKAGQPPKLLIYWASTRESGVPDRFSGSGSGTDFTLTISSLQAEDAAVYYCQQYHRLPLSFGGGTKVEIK

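The starting antibody came from a phage panning campaign against this peptide. Designed CDR sequences, proposed from the first random library and measured here. Group labels follow the data file (Ctrl: baseline library sampled from a position-specific scoring matrix, with some repeated check sequences; En: ensemble of fine-tuned language models; GP: Gaussian process model; HC: hill climbing; Gibbs: Gibbs sampling; a sequence that several methods proposed may carry one label only). The assay is AlphaSeq: two haploid yeast populations carry antibody and antigen on their surface. Mating (16 h, 30 °C) was followed by selection of diploids and sequencing of their barcodes. Read counts were normalised to the haploid input and turned into Kd by a linear fit to BCL2-family pairs of known affinity, for each replicate. There are six technical replicates.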

The parent's heavy chain CDRs are GFTLNSYGIS, VIYSDGRRTFYGDSVK, GRAAGTFDS; each variant's own CDRs replace them letter for letter. Numbers give log10(Kd / nM), so 0 is 1 nM and 3 is 1 µM. Smaller is tighter. The mean shown is taken over the replicates in which the pair was detected. An entry "nd" has no value in the source: the pair was not observed among the diploids in that replicate. This suggests poor binding but is not conclusive. A sequence that the file lists under several names has all its replicates listed entry by entry, parted by semicolons.

CDR-H1,CDR-H2,CDR-H3,group,log10 Kd (nM) by replicate,mean log10 Kd (nM),empty controls
GFTLNDYGIS,VIYSDGRRTQYIDSVK,GRAAGTFDS,Ctrl+En_HC,2.21 1.12 1.37 nd 2.60 1.61; 1.83 0.44 0.50 0.64 0.31 1.59,1.29,0/36
GFTLNSYGIS,VIYSDGRRTFYGGSVK,GEAAGTSDS,Ctrl,nd nd nd nd nd nd,nd,0/18
GFTLNSYGIS,VIYSDGYRTMYGDSVK,GRAAGTFDS,Ctrl,nd nd nd nd nd nd,nd,0/18
GFTMNSYGIS,VIYSDGFRTFYGDSVK,GRAAGTFDS,Ctrl,0.80 0.97 nd 1.36 0.42 1.77,1.06,0/18
GFTLNMYGIS,VIYSDGRRLFYGDSVK,GRLGGTFDS,Ctrl,nd nd nd nd nd nd,nd,0/18
GFTLNEYGIS,VIYSDGRRTFYGDSVK,GRTAGTKES,Ctrl,nd nd nd nd nd nd,nd,0/18
GFTLNEYGIS,VIYSDGRRTFYGDSVK,GLMAGTFDS,Ctrl,0.90 -0.08 1.09 0.11 0.68 0.63,0.56,0/18
GFTVNSYGIS,VMYSDGRRTFYTDSVK,GRAAGTFDW,Ctrl,nd nd nd nd nd 2.56,2.56,0/18
GFTLNKYGIS,VIYSDGRRTFYSDSVK,GREAGTFFS,Ctrl,nd nd nd nd nd nd,nd,0/18
GFTLDDYGIS,VIYSDGRRTFYGDSVK,GGAAGTFDS,Ctrl,0.44 0.55 0.71 0.59 0.22 0.42,0.49,0/18
GFTLNSYGIS,VIYSDGRRTFYADSVK,NRAAGTFDS,Ctrl,nd nd nd nd nd 2.16,2.16,1/18 (1.81)
GFTLNSYGIS,VIYSDGRRTFYGDSVK,GRAAGTFND,Ctrl,nd nd nd nd nd nd,nd,0/18
GFELNSYGIS,VIYSDGRRTFYGDSVK,GRGAGTFDS,Ctrl,nd 2.02 nd nd nd nd,2.02,1/18 (1.92)
GFALNSYGIS,VIYSDGRRTFYGNSVK,GRAAGTFDS,Ctrl,nd nd nd nd nd nd,nd,0/18
GFTLNSYGVS,VIYRDGRRTFYGDSVK,GRAAGTFLS,Ctrl,nd nd nd nd nd nd,nd,0/18
GFTLQDYGIS,VIYSDGQRTFYGDKVK,GRAADTFDY,Ctrl,nd nd nd nd nd nd,nd,1/18 (1.93)
GFPLNEYGIS,VIYSDGRRTFYGDSVK,GRVAGTFDS,Ctrl,nd nd nd nd nd nd,nd,0/18
GETLNKYGID,VIYSDGRRTFYQDSVK,GRAAGTFDS,Ctrl,nd nd nd nd nd nd,nd,0/18
GFTLNEYGIS,VIYSDGRRTAYGDSVD,GEEAGTFDS,Ctrl,-0.05 0.17 -0.12 0.03 0.36 0.56,0.16,0/18
GFTLNSYGIS,VIYSDGRRTFYGDSVK,GLASGTFDS,Ctrl,nd nd nd nd nd nd,nd,0/18
GFTLNEYGIS,VIYSDGRRTFYGDDVK,GRAAGTFDS,Ctrl,0.97 0.43 0.15 -0.11 0.40 -0.02,0.30,0/18
GETLNEYGIS,VIYSDGRRTFYGDSVK,GTAAGTFDS,Ctrl,1.66 1.87 nd 1.87 2.10 nd,1.88,0/18
GFTLNSYGIS,VIYSDGFRTFYGDSVK,GRAALTFDS,Ctrl,nd nd nd nd nd nd,nd,0/18
GFTLNSYGIS,VIYSDGMRTFYGDSVK,GRKAGMFDQ,Ctrl,nd nd nd nd nd nd,nd,0/18
GCTLNSYGIS,VIYRDGRRTFYIDSVK,GRAMGTFSS,Ctrl,nd nd nd nd nd nd,nd,0/18
GFTLDSYGIS,VIYSDGRRTWYGDSVK,GRAAGTFDS,Ctrl,nd 2.08 1.54 3.56 1.60 1.71,2.10,0/18
GFTLNSYGIS,VIYADCRRTFYGDQVK,GENAGDFDS,Ctrl,nd nd nd nd nd nd,nd,0/18
GFQLNSYGIS,VIYADGRRTFYADSVK,GRAAGTFDW,Ctrl,nd nd 0.84 0.61 0.30 1.29,0.76,1/18 (0.81)
GFTLNQYGIS,VIYSDGLRTFYGDSVK,GRAAGTFDS,Ctrl,nd nd nd nd nd nd,nd,0/18
LFTLNSYGIS,VIYSDPRRTFYGDSVK,GRAAITFDS,Ctrl,nd nd nd nd nd nd,nd,0/18
GFTLQSYGIS,VIYSDGRRTAYSDSVK,GRAAGTFDS,Ctrl,1.80 1.11 1.39 -0.06 0.50 0.45,0.86,0/18
GFSLNEYGIS,VIYSDGRRAFYGDSVK,GRAAAHFDS,Ctrl,nd nd nd nd nd nd,nd,0/18
GFTLDSYHIH,VIYADGRRTFYGDSVK,GMAAGVFES,Ctrl,nd nd nd nd nd 2.20,2.20,0/18
GFELNSYGIS,VIYSDGRRTFYLDSVK,GRQAGTFDS,Ctrl,3.17 0.80 1.43 1.05 1.14 1.55,1.52,1/18 (1.73)
GFTLNSYGIS,VIYSDGRRTFYKDSVK,ETAAGTFDS,Ctrl,nd nd nd nd nd nd,nd,0/18
GFNLQSYGIS,VIYSDGRRTFYGDSVK,GRNAGTFDS,Ctrl,0.69 0.34 0.79 1.13 -0.21 1.43,0.70,0/18
GFTLTSYGIS,VIYSDGRRTSYGDSVK,GRADGTFDS,Ctrl,nd nd nd nd nd nd,nd,0/18
GFTLNSYGIS,VIYSDGRRTFYLDSVK,GRHAGTFDS,Ctrl,nd nd nd nd nd nd,nd,0/18
GFTLNEYGIS,VIYSDGRRTAYGDSVK,GQAAGTADS,Ctrl,nd nd nd nd nd nd,nd,0/18
GFTISSYGIS,VIYSDGRRTFYGDSVK,GRAAGTFDS,Ctrl,1.65 nd 1.09 1.04 2.52 nd,1.57,0/18
GFTLNSYGIS,VIYSDGRRTFYTDSVR,GRAAGTFDS,Ctrl,nd 2.20 1.49 nd 1.68 2.02,1.85,0/18
GRTLNSYGIS,VIYSDGLRTFYGDSVK,GRAAGTFDS,Ctrl,nd 0.74 1.01 2.52 2.44 nd,1.68,0/18
GFNLNDYGIS,VIYSDGRRTFYGDSVV,GQAAGTFDS,Ctrl,1.75 nd 1.81 1.52 2.44 1.54,1.81,0/18
GYTLNSYGIS,VIYSDGRRTVYGDSVK,GRAAGTFDS,Ctrl,nd nd nd nd nd nd,nd,0/18
GFTLDSYGIS,VIYSDGRRTFYGDSVK,GHVAGTFDS,Ctrl+GP_Gibbs,nd nd nd nd nd nd; 0.81 1.38 0.80 0.85 0.75 0.86,0.91,2/36 (2.24)
GFTLNSYGIS,VIYSDGMRTFYIDSVK,GRAAGTFDS,Ctrl,nd nd 2.33 1.92 1.12 2.03,1.85,0/18
GVTLNSYGIS,VIYSDGRRTFYADSVK,GRGAGTFDS,Ctrl,0.78 1.08 0.93 1.09 0.48 0.57,0.82,0/18
GFTLNSYGIS,VIYSDGRRTFYGDEVK,GFAAGTFDS,Ctrl,nd nd nd nd nd nd,nd,0/18
GFTLNEYGIS,VIYADGRRVFYGDSVK,GRAAGTFDT,Ctrl,0.62 1.06 0.18 0.69 1.06 0.06,0.61,1/18 (0.89)
GFTLADYGIS,VIYSDGRRNAYGDSVK,GKAAGTFDS,Ctrl,nd 1.17 1.46 1.59 nd 1.25,1.37,0/18
GFTLNSYGIS,VIYSDGRRTFYGHSVK,RRAAGTFDS,Ctrl,nd nd nd nd nd nd,nd,0/18
GFTLNSYGIS,VIYSDGRRTFYGDSVK,GREAGTNDS,Ctrl,nd nd nd nd nd nd,nd,0/18

Again, the first 3 entries without any signal:

{"CDR-H1": "GFTLNSYGIS", "CDR-H2": "VIYSDGRRTFYGGSVK", "CDR-H3": "GEAAGTSDS", "group": "Ctrl", "log10 Kd (nM) by replicate": "nd nd nd nd nd nd", "mean log10 Kd (nM)": "nd", "empty controls": "0/18"}
{"CDR-H1": "GFTLNSYGIS", "CDR-H2": "VIYSDGYRTMYGDSVK", "CDR-H3": "GRAAGTFDS", "group": "Ctrl", "log10 Kd (nM) by replicate": "nd nd nd nd nd nd", "mean log10 Kd (nM)": "nd", "empty controls": "0/18"}
{"CDR-H1": "GFTLNMYGIS", "CDR-H2": "VIYSDGRRLFYGDSVK", "CDR-H3": "GRLGGTFDS", "group": "Ctrl", "log10 Kd (nM) by replicate": "nd nd nd nd nd nd", "mean log10 Kd (nM)": "nd", "empty controls": "0/18"}

The authors averaged sequences with at least three values out of six and counted those with two or fewer as poor binders. The parent sequence was in this pool as ten entries: three were never detected, three once, and four in most replicates, with averages from 0.34 to 2.37. Values of this round are not directly comparable with the first-round values of the same sequences. Background: pairings of all heavy chain designs with three empty control strains gave a value in 1% of cases (median 2.08, 5th percentile 0.84). Values in that range, when seen in few replicates, are hard to tell from nonspecific mating. The control count says in how many pairings with the empty strains this scFv gave a signal, with their mean in brackets.

Values reported by Li et al. 2023, doi:10.1038/s41467-023-39022-2 (FLAb copy).